Test results taken from ChEMBL document CHEMBL4819022, “Discovery of JNJ-63576253: A Clinical Stage Androgen Receptor Antagonist for F877L Mutant and Wild-Type Castration-Resistant Prostate Cancer (mCRPC)” (J Med Chem, 2021).
Activity calls are given as the source filed them.

Sequences of proteins named here, by UniProt entry; tags and fusion partners are left off.
UniProt P10275, whole entry L702H: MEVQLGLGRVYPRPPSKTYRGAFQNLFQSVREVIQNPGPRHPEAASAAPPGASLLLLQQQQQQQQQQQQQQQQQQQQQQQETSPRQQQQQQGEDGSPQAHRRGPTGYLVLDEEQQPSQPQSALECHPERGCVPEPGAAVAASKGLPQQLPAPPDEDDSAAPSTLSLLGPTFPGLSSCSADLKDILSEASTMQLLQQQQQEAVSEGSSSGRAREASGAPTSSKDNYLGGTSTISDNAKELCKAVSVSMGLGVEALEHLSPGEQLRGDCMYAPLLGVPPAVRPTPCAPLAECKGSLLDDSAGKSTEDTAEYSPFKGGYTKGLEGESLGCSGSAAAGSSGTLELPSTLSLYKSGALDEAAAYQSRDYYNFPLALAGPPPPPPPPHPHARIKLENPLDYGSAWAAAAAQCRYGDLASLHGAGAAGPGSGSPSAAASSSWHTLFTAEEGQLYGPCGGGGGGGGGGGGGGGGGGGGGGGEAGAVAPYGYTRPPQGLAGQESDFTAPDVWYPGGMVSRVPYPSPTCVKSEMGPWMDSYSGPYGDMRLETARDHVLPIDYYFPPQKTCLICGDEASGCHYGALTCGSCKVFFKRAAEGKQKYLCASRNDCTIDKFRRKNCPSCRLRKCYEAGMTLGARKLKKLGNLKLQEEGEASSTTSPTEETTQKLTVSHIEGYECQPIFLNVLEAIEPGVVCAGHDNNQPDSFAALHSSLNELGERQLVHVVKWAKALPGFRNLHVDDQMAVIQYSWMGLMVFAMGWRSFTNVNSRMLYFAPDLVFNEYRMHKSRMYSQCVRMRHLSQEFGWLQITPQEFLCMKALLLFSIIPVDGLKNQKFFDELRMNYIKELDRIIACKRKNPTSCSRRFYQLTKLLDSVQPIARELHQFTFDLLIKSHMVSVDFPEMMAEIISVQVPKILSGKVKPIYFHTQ
UniProt P10275, whole entry T878A: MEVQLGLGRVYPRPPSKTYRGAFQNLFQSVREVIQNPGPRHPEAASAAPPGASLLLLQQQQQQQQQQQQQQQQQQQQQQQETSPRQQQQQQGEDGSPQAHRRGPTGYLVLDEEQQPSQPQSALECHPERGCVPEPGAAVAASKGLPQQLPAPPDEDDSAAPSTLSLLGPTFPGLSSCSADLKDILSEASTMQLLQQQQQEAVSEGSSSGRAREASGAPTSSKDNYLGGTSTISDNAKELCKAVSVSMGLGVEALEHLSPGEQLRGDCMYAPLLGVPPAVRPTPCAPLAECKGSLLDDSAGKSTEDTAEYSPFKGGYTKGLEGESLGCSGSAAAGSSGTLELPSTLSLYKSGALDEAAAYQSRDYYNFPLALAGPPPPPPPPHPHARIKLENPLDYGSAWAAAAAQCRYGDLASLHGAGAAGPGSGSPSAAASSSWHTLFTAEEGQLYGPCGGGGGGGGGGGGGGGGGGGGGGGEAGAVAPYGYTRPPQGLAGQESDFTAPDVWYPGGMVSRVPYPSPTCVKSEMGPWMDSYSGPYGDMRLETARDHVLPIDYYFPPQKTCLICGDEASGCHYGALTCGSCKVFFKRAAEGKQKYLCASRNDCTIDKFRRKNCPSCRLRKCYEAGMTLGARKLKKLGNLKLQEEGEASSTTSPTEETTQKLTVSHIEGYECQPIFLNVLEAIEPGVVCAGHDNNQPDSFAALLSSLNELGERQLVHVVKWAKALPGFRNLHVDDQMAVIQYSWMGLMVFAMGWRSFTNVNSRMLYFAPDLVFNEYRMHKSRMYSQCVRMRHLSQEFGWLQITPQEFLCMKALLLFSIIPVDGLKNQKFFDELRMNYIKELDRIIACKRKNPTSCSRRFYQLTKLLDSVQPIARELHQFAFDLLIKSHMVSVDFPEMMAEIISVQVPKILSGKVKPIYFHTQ
UniProt P10275, whole entry W742C: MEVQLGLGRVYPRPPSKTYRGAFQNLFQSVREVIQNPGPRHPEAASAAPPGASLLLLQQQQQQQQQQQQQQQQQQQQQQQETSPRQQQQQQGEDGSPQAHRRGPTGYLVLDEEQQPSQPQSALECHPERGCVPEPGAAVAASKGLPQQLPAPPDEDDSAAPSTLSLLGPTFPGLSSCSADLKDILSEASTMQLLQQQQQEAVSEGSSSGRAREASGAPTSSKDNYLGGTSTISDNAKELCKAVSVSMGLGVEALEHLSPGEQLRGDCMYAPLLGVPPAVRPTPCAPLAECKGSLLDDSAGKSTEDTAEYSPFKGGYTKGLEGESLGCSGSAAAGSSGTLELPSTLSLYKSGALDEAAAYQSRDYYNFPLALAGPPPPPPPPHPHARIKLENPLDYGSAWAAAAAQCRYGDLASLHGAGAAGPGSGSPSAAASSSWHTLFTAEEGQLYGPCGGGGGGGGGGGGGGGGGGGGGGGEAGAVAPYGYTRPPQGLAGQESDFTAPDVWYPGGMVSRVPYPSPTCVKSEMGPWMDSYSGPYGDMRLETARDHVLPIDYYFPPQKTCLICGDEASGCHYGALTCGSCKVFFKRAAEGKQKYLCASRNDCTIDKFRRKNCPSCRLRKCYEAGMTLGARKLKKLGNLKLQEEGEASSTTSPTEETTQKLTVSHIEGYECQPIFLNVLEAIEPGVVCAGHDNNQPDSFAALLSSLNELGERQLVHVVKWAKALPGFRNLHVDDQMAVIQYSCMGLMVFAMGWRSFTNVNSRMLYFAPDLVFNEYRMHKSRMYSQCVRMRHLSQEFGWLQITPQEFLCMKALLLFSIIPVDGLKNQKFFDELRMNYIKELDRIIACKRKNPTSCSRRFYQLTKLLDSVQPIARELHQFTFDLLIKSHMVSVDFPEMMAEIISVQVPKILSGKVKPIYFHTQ
UniProt P10275, whole entry, looked up, stated change not applied: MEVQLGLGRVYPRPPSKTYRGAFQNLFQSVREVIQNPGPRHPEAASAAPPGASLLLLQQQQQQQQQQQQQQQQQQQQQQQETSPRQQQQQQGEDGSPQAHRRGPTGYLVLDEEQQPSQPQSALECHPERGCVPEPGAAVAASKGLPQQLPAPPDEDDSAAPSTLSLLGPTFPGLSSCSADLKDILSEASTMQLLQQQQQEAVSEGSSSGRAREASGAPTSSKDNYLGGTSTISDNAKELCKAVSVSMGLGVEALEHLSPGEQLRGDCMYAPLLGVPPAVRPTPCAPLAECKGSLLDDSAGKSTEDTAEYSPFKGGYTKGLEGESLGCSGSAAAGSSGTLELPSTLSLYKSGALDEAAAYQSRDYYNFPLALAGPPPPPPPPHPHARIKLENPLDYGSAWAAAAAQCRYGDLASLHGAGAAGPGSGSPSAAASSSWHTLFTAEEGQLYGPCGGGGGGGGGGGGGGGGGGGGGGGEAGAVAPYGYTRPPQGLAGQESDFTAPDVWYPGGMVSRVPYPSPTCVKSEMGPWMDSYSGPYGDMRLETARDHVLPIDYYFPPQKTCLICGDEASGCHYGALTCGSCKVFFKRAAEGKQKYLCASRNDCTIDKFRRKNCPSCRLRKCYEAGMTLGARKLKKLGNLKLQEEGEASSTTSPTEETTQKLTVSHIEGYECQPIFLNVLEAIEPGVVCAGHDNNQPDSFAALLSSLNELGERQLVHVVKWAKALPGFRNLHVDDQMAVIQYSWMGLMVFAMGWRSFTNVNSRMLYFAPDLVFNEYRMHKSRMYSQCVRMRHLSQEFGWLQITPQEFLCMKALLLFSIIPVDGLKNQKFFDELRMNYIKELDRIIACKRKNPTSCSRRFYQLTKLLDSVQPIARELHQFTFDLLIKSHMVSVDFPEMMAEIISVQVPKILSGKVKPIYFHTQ
UniProt P10275, whole entry F877L: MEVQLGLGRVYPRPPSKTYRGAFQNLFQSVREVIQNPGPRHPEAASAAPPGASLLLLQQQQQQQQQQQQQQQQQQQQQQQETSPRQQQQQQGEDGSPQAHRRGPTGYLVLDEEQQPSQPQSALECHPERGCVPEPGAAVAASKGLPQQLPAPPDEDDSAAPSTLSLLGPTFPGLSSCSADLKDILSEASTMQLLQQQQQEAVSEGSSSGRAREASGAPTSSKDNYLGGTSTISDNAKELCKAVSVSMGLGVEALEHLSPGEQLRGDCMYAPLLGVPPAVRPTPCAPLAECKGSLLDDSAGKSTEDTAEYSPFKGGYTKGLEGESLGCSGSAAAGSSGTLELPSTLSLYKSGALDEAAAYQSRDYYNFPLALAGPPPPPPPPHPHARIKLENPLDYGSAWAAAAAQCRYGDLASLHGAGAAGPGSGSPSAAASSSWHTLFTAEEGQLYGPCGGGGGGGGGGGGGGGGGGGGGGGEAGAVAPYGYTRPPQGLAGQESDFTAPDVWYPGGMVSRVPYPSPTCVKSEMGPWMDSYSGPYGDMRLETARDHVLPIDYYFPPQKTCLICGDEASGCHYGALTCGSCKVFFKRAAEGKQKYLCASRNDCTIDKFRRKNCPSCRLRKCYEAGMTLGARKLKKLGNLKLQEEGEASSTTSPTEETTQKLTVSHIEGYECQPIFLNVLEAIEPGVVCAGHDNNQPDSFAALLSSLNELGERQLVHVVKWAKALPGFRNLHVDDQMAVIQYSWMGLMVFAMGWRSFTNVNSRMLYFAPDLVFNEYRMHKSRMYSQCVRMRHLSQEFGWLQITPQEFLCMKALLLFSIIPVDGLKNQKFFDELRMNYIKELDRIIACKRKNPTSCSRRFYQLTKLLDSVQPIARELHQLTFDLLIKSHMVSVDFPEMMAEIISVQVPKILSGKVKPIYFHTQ

Tests used:
Format in all cases: cell-based
[1] = system: Androgen receptor (Homo sapiens), P10275 [L702H]; test: Antagonist activity at AR L702H mutant (unknown origin) transfected in human HepG2 cells cotransfected with ARE-LUC assessed as inhibition of R1881-induced receptor transactivation incubated for 48 hrs by steady-glo luciferase reporter gene assay; conditions: filed as antagonist
[2] = system: Androgen receptor (Homo sapiens), P10275 [T878A]; test: Antagonist activity at AR T878A mutant (unknown origin) transfected in human HepG2 cells cotransfected with ARE-LUC assessed as inhibition of R1881-induced receptor transactivation incubated for 48 hrs by steady-glo luciferase reporter gene assay; conditions: filed as antagonist
[3] = system: Androgen receptor (Homo sapiens), P10275 [W742C]; test: Antagonist activity at AR W742C mutant (unknown origin) transfected in human HepG2 cells cotransfected with ARE-LUC assessed as inhibition of R1881-induced receptor transactivation incubated for 48 hrs by steady-glo luciferase reporter gene assay; conditions: filed as antagonist
[4] = system: Androgen receptor (Homo sapiens), P10275 [UNDEFINED MUTATION]; test: Antagonist activity at AR W875L mutant (unknown origin) transfected in human HepG2 cells cotransfected with ARE-LUC assessed as inhibition of R1881-induced receptor transactivation incubated for 48 hrs by steady-glo luciferase reporter gene assay; conditions: filed as antagonist
[5] = system: Androgen receptor (Homo sapiens), P10275 [F877L]; test: Antagonist activity at AR F877L in human LNCaP cells assessed as reduction in cytoplasm to nuclear translocation of AR at 0.0114 to 25 uM after 24 hrs in absence of AR agonist R1881 by Alexa Fluor 488 staining based immunofluorescence analysis; conditions: filed as antagonist, dose 0.0114-25 µM
[6] = system: Androgen receptor (Homo sapiens), P10275 [F877L]; test: Antagonist activity at AR F877L in human LNCaP cells assessed as reduction in R1881-induced PSA expression at 0.0114 to 25 uM after 24 hrs by Alexa Fluor 568 staining based immunofluorescence analysis; conditions: filed as antagonist, dose 0.0114-25 µM
[7] = target: Androgen receptor (Homo sapiens, UniProt P10275); test: Antagonist activity at AR wild type in human LNCaP cells assessed as reduction in R1881-induced PSA expression at 0.0114 to 25 uM after 24 hrs by Alexa Fluor 568 staining based immunofluorescence analysis; conditions: filed as antagonist, dose 0.0114-25 µM

Measured: Activity

CN1CCC(Oc2ccc(N3C(=S)N(c4cnc(C#N)c(C(F)(F)F)c4)C(=O)C34CCC4)cc2)CC1
active: all assays above
